Measurements published in paper PMC2809336, “Antidepressant Interactions with the NMDA NR1-1b Subunit” (Journal of Biophysics, 2008).

How the values were obtained:
Format in all cases: binding
NMDA NR1-1b S1S2 domain [1] = target: T1, NMDA NR1-1b S1S2 domain (Rattus norvegicus, UniProt P35439); experiment: Kd determination by intrinsic tryptophan fluorescence (double reciprocal, Benesi-Hildebrand plot); settings: 5.29 μM NR1-1b S1S2, buffer 3 pH 6.5, 25°C, error at 95% confidence level
T1 construct: (His)8-TSG-LVPRG(thrombin cut site)-S1(394-544)-GT-S2(663-800); (His)8-TSG-LVPRG (His8 tag with thrombin cut site) (N); made in house; host or cells: E. coli Origami B(DE3)
Description: (§1) Intrinsic fluorescence studies were performed in a Cary Eclipse fluorometer at 25°C. All emission scans were acquired from 300 to 400 nm upon excitation at 290 nm, with 10 nm excitation and emission slit widths in a 10 mm-path-length cell. Excitation was performed at 290 nm to minimize interference from both tyrosine residues in the NMDA NR1-1b S1S2 domain as well as the aromatic antidepressants being studied. Before data acquisition, samples were incubated for thirty seconds in the sample holder at 25°C. […] Thus, data was reported without a buffer subtraction.
(§2) Protein samples were at a final concentration of 5.29 μM in buffer 3 (10 mM MES, pH 6.5, 25 mM NaCl, 1 mM glycine). All antidepressants were solubilized in 100% methanol to the highest attainable concentrations. To account for any effects methanol had on fluorescence intensity, protein spectra with methanol were collected, allowing direct comparison between samples with and without antidepressant. Each data set consisted of at least three independent emission spectra of identically prepared samples. The data is reported with error determined at the 95% confidence level.
A double reciprocal plot was used to determine Kd, which derives from the Benesi-Hildebrand relationship, provided there is a 1 : 1 binding stoichiometry. […] When 1/ΔF is plotted against 1/[L], a linear relationship exists. The intercept on the x-axis is − K d.. […]

NMDA NR1-1b S1S2 domain [2] = target: T1, NMDA NR1-1b S1S2 domain; experiment: Intrinsic tryptophan fluorescence quenching and λ max of emission; settings: for λ max of the NR1-1b drug bound complex: excitation 290 nm, 25°C, apo 326.24 nm, drug at final quenching concentration
Description: as §1
as §2, with “All” for “Protein samples were at a final concentration of 5.29 μM in buffer 3 (10 mM MES, pH 6.5, 25 mM NaCl, 1 mM glycine). All”
The fluorescence intensity of the NR1-1b S1S2 domain was determined in the presence and absence of eachantidepressant with the appropriate blank subtraction. […] For all samples, the final concentration of methanol was kept at 1.8%.

NMDA NR1-1b S1S2 domain [3] = target: T1, NMDA NR1-1b S1S2 domain; experiment: Extrinsic ANS fluorescence; settings: ANS 1 : 1 with 5.29 μM NR1-1b S1S2, excitation 380 nm; drug concentrations as in Figure 4
Description: Extrinsic fluorescence studies were performed in a Cary Ec-lipse fluorometer at 25°C. All emission scans were acquired from 400 to 600 nm after excitation at 380 nm with 20 nm slit widths for emission and excitation in a 10 mm-path-length cell. Before data acquisition, samples were incubated for thirty seconds in the sample holder at 25°C. Blanks were collected both for the antidepressants and the NR1-1b S1S2 domain. Three emission spectra of identicallyprepared samples were averaged for each plot. 8-Anilino-1-naphthalenesulfonic acid (ANS, TCI America), in a 1 : 1 molar ratio, was added to 5.29 μM of the NR1-1b S1S2 domain premixed with antidepressant (at final concentrations as above for intrinsic quenching studies in addition to the SSRIs fluoxetine (8.62 μM) and fluvoxamine (2.81 mM) and the SNRI venlafaxine (29.07 μM)). As with all intrinsic assays, total methanol concentration was kept at 1.8%. Plots of intensity versus wavelength were constructed from averaged emission spectra.

## CN(C)CCCN1c2ccccc2CCc2ccccc21 [imipramine]
NMDA NR1-1b S1S2 domain [1]
  Kd: 830 ± 150 µM
NMDA NR1-1b S1S2 domain [2]
  λ max of the NR1-1b drug bound complex: 328.04 nm

## CN[C@H]1CC[C@@H](c2ccc(Cl)c(Cl)c2)c2ccccc21 [sertraline]
NMDA NR1-1b S1S2 domain [2]; desipramine, trimipramine, imipramine 137 μM, maprotiline 3.18 mM, nortriptyline 2.08 mM, paroxetine 3.75 mM, sertraline 1.88 mM, fluvoxamine 2.81 mM
  Binding to NR1-1b S1S2 by intrinsic tryptophan fluorescence: binding
NMDA NR1-1b S1S2 domain [2]
  λ max of the NR1-1b drug bound complex: 329.07 ± 0 nm
NMDA NR1-1b S1S2 domain [2]; listed as Sertraline
  λ max of the NR1-1b drug bound complex: 329.07 nm
NMDA NR1-1b S1S2 domain [2]; intensity versus apo NR1-1b S1S2
  Change of tryptophan fluorescence emission upon binding: decrease in fluorescence emission
NMDA NR1-1b S1S2 domain [3]
  ANS emission spectrum of the NR1-1b S1S2 complex versus ANS bound to apo S1S2 (binding): significantly different
